Reference: patent US8278033B2, “Efficient well being assessment and improved treatment protocol” (priority 2008, dated 2012)

System: endothelial cells
Test: Anti-vascular score (AVS) on Fast Green/H&E slides of tumor cell cultures, averaged over paired comparisons
Format: cell-based, human
Parameters: key: 10x the 0+ to 5+ anti-microvascular score (max 50)
Conditions: 10x multiples of the 0+ to 5+ score, average of N paired comparisons; bevacizumab 2.5 mg/ml, DMSO 0.5% + EtOH 0.5%, cisplatin 3.3, sunitinib 8.35, gefitinib 22.35, erlotinib 89.4, sorafenib 12.5, imatinib 12.5 μg/ml
Experimental: Solid tumors are minced to pieces smaller than 1 mm (small enough to be aspirated into a standard disposable 10 ml pipette) with high quality curved surgical scissors. Medium in which said tumors may have been transported is reserved, along with the supernatant from the tissue mince. Scissor-minced tumor pieces are digested with collagenase/DNase in RPMI-1640 containing antibiotics and 10% fetal calf serum. Specimens are digested in 50 ml disposable polypropylene centrifuge tubes, assisted by gentle mixing with plastic-coated, magnetic stirring bars over a stirring plate. Specimens are thusly mixed until complete gross digestion has taken place—typically about 2-3 hours for a 1-3 gram specimen. Cytospin slides are then prepared from all cell fractions (transport medium, supernatant from tissue mince, and enzyme digestate), and stained with fast green-H&E, as described previously (Weisenthal, et al., “A Novel Dye Exclusion Method for Testing in vitro Chemosensitivity of Human Tumors,” Cancer Res. (1983) 43:749-757).
Final volume of cell suspension/drug solution (or vehicle) plated for culture can be 0.12 ml. […]
Cells are cultured with the index concentration of each drug and, if desired, with dilutions of the index concentration, where the index concentration is determined from training set assays or from the literature. […]

Compound: CNC(=O)c1cc(Oc2ccc(NC(=O)Nc3ccc(Cl)c(C(F)(F)F)c3)cc2)ccn1 [Sorafenib, sorafenib]
- Anti-Vascular Score (AVS) (Avg): 12.2
